In PubChem BioAssay AID624172 (National Center for Advancing Translational Sciences (NCATS), 2012):
The entries are a selection whose mix differs from that of the whole data set. Some salts or complexes appear as unconnected parts, following the source record. Active and inactive are the calls of the source. Calls come from the whole dose curve; as a rule, active = well fitted activation curve with a large enough effect; inconclusive = small, poorly fitted or top-dose-only effect; inactive = no such curve, though single readings can be large or run the other way.

Protein sequences, listed by entry. Tags and fused reporters are not part of them. Lines headed by an entry give the natural chain unless they say otherwise; changes in a name come on top.
UniProt P43220, whole entry, stated change not applied: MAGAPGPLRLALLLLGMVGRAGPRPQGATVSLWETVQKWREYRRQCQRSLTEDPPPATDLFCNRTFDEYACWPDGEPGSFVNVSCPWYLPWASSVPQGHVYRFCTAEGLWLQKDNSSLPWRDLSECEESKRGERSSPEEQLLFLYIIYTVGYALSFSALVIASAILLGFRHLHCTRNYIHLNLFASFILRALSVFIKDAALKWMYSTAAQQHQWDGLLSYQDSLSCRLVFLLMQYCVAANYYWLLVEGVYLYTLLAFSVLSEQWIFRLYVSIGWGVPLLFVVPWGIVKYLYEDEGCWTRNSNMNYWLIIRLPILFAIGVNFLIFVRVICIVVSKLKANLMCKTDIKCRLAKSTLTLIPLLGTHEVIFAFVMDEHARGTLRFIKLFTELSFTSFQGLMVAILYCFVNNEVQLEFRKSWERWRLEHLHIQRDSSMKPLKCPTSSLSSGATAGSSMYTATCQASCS

Target: Glucagon-like peptide 1 receptor (Homo sapiens) (UniProt P43220)
Test: qHTS of GLP-1 Receptor Agonists; note: % of control where 0% means no effect
Details: HEK293 GLP-1R CRE-luciferase, luminescence, 4-6 h, cells express a hypersensitive GLP-1R form; at 45.6 µM (top of the series)
Excerpt: The overall goal of this project was to develop a novel assay for discovering small molecule ligands for class B1 G protein-coupled receptors (GPCRs). Very few agonists (or inverse agonists) with generally weak activity for this entire group of physiologically important receptors are known to date. To establish proof-of-principle that this critical bottleneck can be overcome with a suitable screening approach, our studies focused on the class B1 receptor for glucagon-like peptide-1 (GLP-1R), a potential therapeutic target for diabetes and neurodegenerative disease.
The assay was developed in a "mix and measure" format using a cell-based functional readout. Toward this goal, stably transfected HEK293 cell clones were established that co-express (i) a cAMP-responsive luciferase reporter gene, and (ii) GLP-1Rs that upon ligand interaction either stimulate (agonists) or inhibit (inverse agonists) luciferase activity. In different cell lines to be used for screening, expressed GLP-1Rs are specifically optimized for high sensitivity detection of either weak agonists (hypersensitive receptor) or inverse agonists (constitutively active receptor mutant). In addition, control cell lines were developed that express either the cAMP-responsive reporter gene without recombinant GLP-1Rs (enabling initial exclusion of GLP-1R independent effects of candidate probes), or the reporter gene together with wild type GLP-1Rs (for confirmation of probe activity at this receptor), or the reporter gene in combination with the constitutively active orphan receptor GPR119 (enabling initial exclusion of GLP-1R independent inhibitory effects of candidate inverse agonists).
To that end, this assay was optimized for 1536-well format and screened against the MLSMR.
NIH Molecular Libraries Probe Production Network [MLPCN]
NIH Chemical Genomics Center [NCGC]
PI Name: Martin Beinborn, Tufts Medical Center
In a white solid 1536-well plate, 6 uL of cells are dispensed in DMEM without phenol red, 10% Nu serum, and 1% pen-strep medium. The plates are then incubated for 12 hours at 37 deg C at 5% CO2 before 23 nL of compounds are added. After a 4-6 hr incubation at37 deg C and 5% CO2, 3 uL of detection reagent are added and after a 12 min incubation at RT, a luminescent read is obtained on the ViewLux.

Row | SMILES | activation
1 | O=C(NCC1(N2CCCCC2)CCCCC1)c1ccc(OC(F)F)cc1 | inactive: 5.62%
2 | CC(C)(C)n1nnnc1C(c1ccccc1OC(F)(F)F)N1CCC(n2c(=O)[nH]c3ccccc32)CC1 (configuration not stated) | inactive: -4.84%
3 | O=c1[nH]c2ccccc2n1C1CCN(C(c2ccccc2OC(F)(F)F)c2nnnn2C2CCCC2)CC1 (configuration not stated) | inactive: -2.45%
4 | N#CC1(Nc2ccccc2)CCN(CCc2ccccc2)CC1 | inactive: -14.6%
5 | CCN1CCC(Nc2ccc(Cl)cc2)CC1 | inactive: -7.86%
6 | CCOc1ccc(C(=O)NCC2(N3CCOCC3)CCCCC2)cc1 | inactive: -5.2%
7 | O=C(NCC1(N2CCCCC2)CCCCC1)c1cccc([N+](=O)[O-])c1 | inactive: 7.79%
8 | CSc1ccc(C(=O)NCC2(N3CCOCC3)CCCCC2)cc1 | inactive: 14.7%
9 | O=[N+]([O-])c1cc([N+](=O)[O-])c(NCC2CCS(=O)(=O)C2)c([N+](=O)[O-])c1 (configuration not stated) | inactive: -6.14%
10 | O=C(NCC1(N2CCCCC2)CCCCC1)c1cccc(C(F)(F)F)c1 | inactive: 7.44%
11 | COc1cc(C(=O)NCC2(N3CCCCC3)CCCCC2)ccc1OC(F)F | inactive: 9.83%
12 | O=C(NCC1(N2CCOCC2)CCCCC1)c1cc(=O)[nH]c2ccccc12 | inactive: -0.257%
13 | CN1CCN(CCOC(=O)C(O)(c2ccccc2)c2ccccc2)CC1 | inactive: -6.88%
14 | COc1ccc(NC2CCN(C(=O)OC(C)(C)C)CC2)cc1 | inactive: 6.3%
15 | CC(C)c1ccc(C(=O)NCC2(N3CCOCC3)CCCCC2)cc1 | inactive: 6.94%
16 | CCCCn1nnnc1C(c1cccc2ccccc12)N1CCC(n2c(=O)[nH]c3ccccc32)CC1 (configuration not stated) | inactive: -0.741%
17 | CCCCn1nnnc1C(c1ccccc1OC(F)(F)F)N1CCC(n2c(=O)[nH]c3ccccc32)CC1 (configuration not stated) | inactive: -8.76%
18 | CC(C)c1ccc(NC2CCN(C(=O)OC(C)(C)C)CC2)cc1 | inactive: 8.73%
19 | O=[N+]([O-])c1cc([N+](=O)[O-])c(OC2CCCCC2O)c([N+](=O)[O-])c1 (configuration not stated) | inactive: 14.8%
20 | CN(C)c1cccc(C(=O)NCC2(N3CCCCC3)CCCCC2)c1 | inactive: -1.06%
21 | COc1ccc(CN(CCCl)CCCl)cc1Cl | inactive: 6.73%
22 | O=C(NCC1(N2CCOCC2)CCCCC1)c1cc(F)c(F)cc1Cl | inactive: 3.56%
23 | CCC(c1nnnn1C(C)(C)C)N1CCC(n2c(=O)[nH]c3ccccc32)CC1 (configuration not stated) | inactive: -1.33%

Row | SMILES | activation
24 | COc1cc(OC)c(C(=O)NCC2(N(C)C)CCCCC2)cc1OC | inactive: 8.34%
25 | CCCCn1nnnc1C(c1ccnc2ccccc12)N1CCC(n2c(=O)[nH]c3ccccc32)CC1 (configuration not stated) | inactive: 12.1%
26 | O=C(OC1CN2CCC1CC2)c1ccc([N+](=O)[O-])cc1 (configuration not stated) | inactive: 5.53%
27 | CN1CCC(Nc2cccc(F)c2)CC1 | inactive: -0.68%
28 | O=C(NCC1(N2CCCCC2)CCCCC1)c1cncc(Br)c1 | inactive: -6.57%
29 | COc1ccc2c(c1O)-c1c(O)c(OC)cc3c1[C@H](C2)[N+](C)(C)CC3.O=[N+]([O-])c1cc([N+](=O)[O-])c([O-])c([N+](=O)[O-])c1[O-] | inactive: -4.28%
30 | O=[N+]([O-])c1cc([N+](=O)[O-])c(Nc2ccc(Cl)cc2)c([N+](=O)[O-])c1 | inactive: -2.97%
31 | COc1ccc(C(c2nnnn2C2CCCC2)N2CCC(n3c(=O)[nH]c4ccccc43)CC2)cc1 (configuration not stated) | inactive: -6.08%
32 | O=C(NCC1(N2CCOCC2)CCCCC1)c1ccccc1Br | inactive: 10.7%
33 | CCCOc1ccc(C(=O)NCC2(N(C)C)CCCCC2)cc1OC | inactive: 14.1%
34 | Cc1ccc(C(=O)NCC2(N(C)C)CCCCC2)o1 | inactive: 2.31%
35 | COc1ccc(C(=O)NCC2(N3CCCCC3)CCCCC2)c(OC)c1OC | inactive: -8.05%
36 | CC(C)(C)OC(=O)N1CCC(N(C(=O)c2ccccc2)c2ccc(F)cc2)CC1 | inactive: 1.09%
37 | CCC(c1nnnn1C1CCCC1)N1CCC(n2c(=O)[nH]c3ccccc32)CC1 (configuration not stated) | inactive: -2.54%
38 | COc1ccc(C(=O)NCC2(N3CCCCC3)CCCCC2)cc1 | inactive: 1.87%
39 | CCCCn1nnnc1C(CC)N1CCC(n2c(=O)[nH]c3ccccc32)CC1 (configuration not stated) | inactive: 3.19%
40 | O=C(NCC1(N2CCCCC2)CCCCC1)c1cccs1 | inactive: 5.51%
41 | CCCCn1nnnc1C(c1cccs1)N1CCC(n2c(=O)[nH]c3ccccc32)CC1 (configuration not stated) | inactive: -5.08%
42 | O=C(NCC1(N2CCCCC2)CCCCC1)c1ccc(=O)[nH]c1 | inactive: -0.316%
43 | Cc1cccc(NC2(C#N)CCN(Cc3ccccc3)CC2)c1 | inactive: -0.0878%
44 | CSc1ccccc1C(=O)NCC1(N2CCCCC2)CCCCC1 | inactive: 10.9%
45 | Cc1cc(C)cc(N(C(=O)c2ccccc2)C2CCN(C(=O)OC(C)(C)C)CC2)c1 | inactive: 16.9%
46 | O=C(NCC1(N2CCCCC2)CCCCC1)c1ccc(Cl)nc1 | inactive: 6.4%

Row | SMILES | activation
47 | O=c1[nH]c2ccccc2n1C1CCN(C(c2ccccc2OC(F)(F)F)c2nnnn2C2CCCCC2)CC1 (configuration not stated) | inactive: 3.38%
48 | O=C(NCC1(N2CCOCC2)CCCCC1)c1cc2ccccc2o1 | inactive: -0.855%
49 | COc1ccc(Cl)cc1C(=O)NCC1(N2CCOCC2)CCCCC1 | inactive: -0.944%
50 | O=C1C(O)=C([N+](=O)[O-])C(=O)C(O)=C1[N+](=O)[O-] | inactive: -1.81%
51 | O=C(NCC1(N2CCCCC2)CCCCC1)c1ccc(Cl)s1 | inactive: -19.1%
52 | N#CC1(Nc2ccccc2)CCN(Cc2ccccc2)CC1 | inactive: -8.6%
53 | O=C(OC1CN2CCC1CC2)C1c2ccccc2Oc2ccccc21 (configuration not stated) | inactive: -2.27%
54 | O=c1[nH]c2ccccc2n1C1CCN(C(c2cc3ccccc3o2)c2nnnn2C2CCCCC2)CC1 (configuration not stated) | inactive: -1.69%
55 | CCCCn1nnnc1C(c1ccc(OC)cc1)N1CCC(n2c(=O)[nH]c3ccccc32)CC1 (configuration not stated) | inactive: -1.92%
56 | CCOC(=O)N1CCC(Nc2ccc(OC)cc2)CC1 | inactive: -0.291%
57 | O=C1CCN(Cc2ccccc2)CC1 | inactive: -3.55%
58 | O=C(NCC1(N2CCOCC2)CCCCC1)c1ccc(Cl)cc1 | inactive: -6.97%
59 | CC(C)(C)n1nnnc1C(c1ccccc1)N1CCC(n2c(=O)[nH]c3ccccc32)CC1 (configuration not stated) | inactive: 5.37%
60 | CCOc1ccc(C)cc1CN(CCCl)CCCl | inactive: -1.7%
61 | COc1ccccc1C(=O)NCC1(N2CCOCC2)CCCCC1 | inactive: -2.32%
62 | COc1ccc(NC2CCN(CCc3ccccc3)CC2)c(OC)c1 | inactive: 31.7%
63 | CCOC(=O)N1CCC(Nc2ccc(F)cc2)CC1 | inactive: -5.63%
64 | CCCCn1nnnc1C(c1cc2ccccc2o1)N1CCC(n2c(=O)[nH]c3ccccc32)CC1 (configuration not stated) | inactive: 8.71%
65 | O=P1(N(CCCl)CCCl)SCCCS1 | inactive: 8.86%
66 | CCCCOc1ccc(C(=O)NCC2(N3CCOCC3)CCCCC2)cc1 | inactive: 15.8%
67 | O=C(NCC1(N2CCCCC2)CCCCC1)c1ccc(F)cc1 | inactive: 5.47%
68 | O=c1[nH]c2ccccc2n1C1CCN(C(c2ccccc2)c2nnnn2C2CCCCC2)CC1 (configuration not stated) | inactive: -0.612%
69 | CCOC(=O)N1CCC(Nc2cccc(C)c2)CC1 | inactive: -6.64%

Row | SMILES | activation
70 | COc1cc(C(=O)NCC2(N(C)C)CCCCC2)ccc1OC(F)F | inactive: 14.3%
71 | O=c1[nH]c2ccccc2n1C1CCN(C(c2cccc3ccccc23)c2nnnn2C2CCCC2)CC1 (configuration not stated) | inactive: -5.67%
72 | CCC(c1nnnn1C1CCCCC1)N1CCC(n2c(=O)[nH]c3ccccc32)CC1 (configuration not stated) | inactive: 1.05%
73 | COc1cccc(C(c2nnnn2C2CCCCC2)N2CCC(n3c(=O)[nH]c4ccccc43)CC2)c1OC (configuration not stated) | inactive: -5.56%
74 | CC(=O)N(c1ccccc1)C1CCNCC1 | inactive: 9.43%
75 | COc1cc(OC)cc(C(=O)NCC2(N3CCCCC3)CCCCC2)c1 | inactive: 2.71%
76 | O=c1[nH]c2ccccc2n1C1CCN(C(c2ccnc3ccccc23)c2nnnn2C2CCCCC2)CC1 (configuration not stated) | inactive: 3.14%
77 | Fc1ccccc1NC1CCN(Cc2ccccc2)CC1 | inactive: -0.493%
78 | Cc1ccc(Nc2c([N+](=O)[O-])cc([N+](=O)[O-])cc2[N+](=O)[O-])cc1 | inactive: -5.8%
79 | Cc1ccc(C(=O)NCC2(N3CCCCC3)CCCCC2)o1 | inactive: -4.37%
80 | Cc1ccc(NC2(C#N)CCN(Cc3ccccc3)CC2)cc1 | inactive: -6.31%
81 | COc1ccc(C(c2nnnn2C2CCCCC2)N2CCC(n3c(=O)[nH]c4ccccc43)CC2)cc1 (configuration not stated) | inactive: -3.14%
82 | CCN1CCC(Nc2cccc(F)c2)CC1 | inactive: -11.4%
83 | CC(C)(C)n1nnnc1C(c1ccnc2ccccc12)N1CCC(n2c(=O)[nH]c3ccccc32)CC1 (configuration not stated) | inactive: 14.4%
84 | Cc1ccccc1NC1(C#N)CCN(Cc2ccccc2)CC1 | inactive: 5.77%
85 | CN(C)c1ccc(C(=O)NCC2(N3CCCCC3)CCCCC2)cc1 | inactive: 4.31%
86 | Cn1c(=O)[nH]cc(N(CCCl)CCCl)c1=O | inactive: -1.28%
87 | O=C(NCC1(N2CCCCC2)CCCCC1)c1ccco1 | inactive: 6.69%
88 | CC(C)(C)c1ccc(C(=O)NCC2(N3CCOCC3)CCCCC2)cc1 | inactive: -3.72%
89 | CN1CCC(Nc2ccc(F)c(Cl)c2)CC1 | inactive: -4.36%
90 | CCOc1ncccc1C(=O)NCC1(N2CCOCC2)CCCCC1 | inactive: 0.638%
91 | O=C(O)C1(Nc2ccccc2)CCN(Cc2ccccc2)CC1 | inactive: 9.46%
92 | NN(c1ccccc1)C1CCN(CCc2ccccc2)CC1 | inactive: -3.2%
